Values quoted from earlier work, collected in paper PMC4793533 (BMC obesity, 2016).

Conditions: 31 test persons with normal fat assimilation; oral doses, radioactively labelled; after 6 days; cited from earlier work

triolein
Excreted in the faeces: less than 10%
